High-throughput results: PubChem, several laboratories
Yeast UUG start: modulators of yeast start codon fidelity, primary screen, whole organism, S. cerevisiae, single point, plate reader | AID 602363, 2012 | S. cerevisiae UUG-firefly luciferase reporter, luminescence/redox ratio | activity score, % at 18.7 µM | hit rate 0.13% among 350,000;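 active = replicate mean at a twofold rise or more, about +100% in these data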;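 also: firefly luciferase made from a UUG start codon reports start codon fidelity; reporter light over untreated wells divided by growth signal over untreated wells; some hits fall short of that in this replicate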
eIF4H FP inh: inhibitors of RNA binding by human eIF4H | Q15056 | eIF4H fluorescence polarization binding assay | inhibition, % at 35 µM | 290,000 tested, 0.94% active | AID 2012;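 further: calls also rest on retests at 20 µM and on dose response follow-up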
DSG3 Ab inh: blocks pemphigus antibody binding to human desmoglein-3; DSG3-coupled beads, scFv-anti-DSG3-GFP binding, flow cytometry; stronger effect = lower value; P32926; 310,000 tested, 0.48% active; binding (percent of control), % at 10 µM;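 active means binding more than 3 SD below its plate's average and above zero; inconclusive means below that plate limit but binding exactly zero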;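 further: hits lower antibody fragment binding to DSG3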
PABP polyA inh: blocks human PABP binding to poly(A) RNA; 290,000 tested, 1% active; calls only at 35 µM; P11940; fluorescence polarization;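 further: calls also rest on retests at 20 µM and on dose response follow-up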
PABP1 MLLE inh: blocks PAM2 peptide binding to the PABP1 MLLE domain; P11940; GST-MLLE / FITC-PAM2 fluorescence polarization; inhibition, % at 20 µM; 360,000 tested, 0.36% active; in the data active means inhibition above about 35%, passing the limit was not always enough
Large screens that a line does not name were inactive. Hits are enriched below; roughly 1.5% of the tested compounds scored in any of these assays. Unless noted, how the calls were made is not given here.

CCNC(=O)OCCC12CC3CC(CC(C3)C1)C2	PABP polyA inh active (no result: Yeast UUG start)
CCCNC(=O)OCC12CC3CC(CC(C3)C1)C2	none (no result: Yeast UUG start)
COc1cc(NS(=O)(=O)c2ccc(NC(=S)NC(=O)c3sc4cc(F)ccc4c3Cl)cc2)nc(OC)n1	PABP1 MLLE inh 41
COc1cc(NS(=O)(=O)c2ccc(NC(C)=O)cc2)nc(OC)n1	none
COc1cc(NS(=O)(=O)c2ccc(NC(=S)NC(=O)c3ccco3)cc2)nc(OC)n1	none
COc1cc(NS(=O)(=O)c2ccc(NC(=S)NC(=O)c3sc4ccccc4c3Cl)cc2)nc(OC)n1	PABP1 MLLE inh 48
COC(=O)CCCC1=CC2=CC(=O)C(C)(OC(=O)c3cccs3)C(=O)C2=CN1CCc1ccccn1 (configuration not stated)	PABP polyA inh active
C#CCOCCOCCOCCNc1nc(N2CCN(C(=O)[C@H]([C@@H](C)CC)n3cc([C@@H](N)CO)nn3)CC2)nc(N2CCN(C(=O)[C@H]([C@@H](C)CC)n3cc([C@@H](N)CO)nn3)CC2)n1	none (no result: Yeast UUG start, DSG3 Ab inh, PABP1 MLLE inh)
C#CCOCCOCCOCCNc1nc(N2CCN(C(=O)[C@H]([C@@H](C)CC)n3cc([C@@H](N)CO)nn3)CC2)nc(N2CCN(C(=O)[C@H]([C@@H](C)CC)n3cc([C@@H](N)CC(C)C)nn3)CC2)n1	eIF4H FP inh inconclusive, PABP polyA inh inconclusive, PABP1 MLLE inh 41
C#CCOCCOCCOCCNc1nc(OC)nc(N2CCN(C(=O)[C@H](CCCCN)n3cc(C(N)CO)nn3)CC2)n1 (some centres not stated)	eIF4H FP inh 60, PABP polyA inh active (no result: Yeast UUG start, DSG3 Ab inh, PABP1 MLLE inh)
C#CCOCCOCCOCCNc1nc(N2CCOCC2)nc(N2CCN(C(=O)[C@H](CCCCN)n3cc([C@@H](N)CO)nn3)CC2)n1	none
CC(C)(C)NC(=O)CCN(/N=C/c1ccc([N+](=O)[O-])o1)C1=NS(=O)(=O)c2ccccc21	eIF4H FP inh 82
CN(C)c1ccc(/C=N/N(CCC(=O)NC(C)(C)C)C2=NS(=O)(=O)c3ccccc32)cc1	none (no result: Yeast UUG start)
C[C@@H]1CN([C@H](C)CO)C(=O)c2cc(NS(C)(=O)=O)ccc2O[C@@H]1CN(C)S(=O)(=O)c1cn(C)cn1	none (no result: eIF4H FP inh, DSG3 Ab inh, PABP polyA inh, PABP1 MLLE inh)
O=C1NN(c2ccc(F)cc2)C(=O)/C1=C\C=C\c1ccco1	eIF4H FP inh 88, PABP polyA inh active
COc1cc(CN(C)c2ncnc3sccc23)ccc1OC(F)F	DSG3 Ab inh 35
CC(=O)c1ccc(NC(=O)Cn2cnc(S(=O)(=O)N3CCCC3)c2)cc1	none (no result: DSG3 Ab inh)
CC(=O)c1ccc(NC(=O)Cn2cnc(S(=O)(=O)N3CCc4ccccc43)c2)cc1	DSG3 Ab inh 79
CCCNC(=S)Nc1ccc(Cl)cc1C	none (no result: Yeast UUG start, DSG3 Ab inh)
Cc1cc(Cl)ccc1NC(=S)Nc1cccnc1	PABP1 MLLE inh 38 (no result: DSG3 Ab inh)
Cc1cc(Cl)ccc1NC(=S)NC(C)(C)C	PABP1 MLLE inh 40 (no result: Yeast UUG start)
Cc1cc(NC(=S)Nc2cccnc2)ccc1Br	none
Fc1cccc(NC(=S)Nc2cccnc2)c1	PABP1 MLLE inh 42
O=C(Nc1cccnc1)Nc1cccc(F)c1	none
CCCOc1ccc(-c2nnn(CC(=O)N3CCCCC3)n2)cc1	DSG3 Ab inh 88
CCCSc1nc2sc3c(c2c(=O)[nH]1)CCN(Cc1ccccc1)C3	eIF4H FP inh inconclusive, PABP polyA inh inconclusive (no result: DSG3 Ab inh)
O=c1[nH]c(C(Cl)Cl)nc2sc3c(c12)CCN(Cc1ccccc1)C3	eIF4H FP inh 78, PABP polyA inh active (no result: Yeast UUG start)
CC(C)c1nnc(NC(=O)C2CCCO2)s1 (configuration not stated)	none (no result: Yeast UUG start)
O=C(Nc1nnc(C2CC2)s1)C1CCCO1 (configuration not stated)	eIF4H FP inh 0.7
C[C@H](CO)N1C[C@H](C)[C@H](CN(C)S(=O)(=O)c2ccccc2)Oc2ccc(NC(=O)Cn3cnnn3)cc2CC1=O	none (no result: eIF4H FP inh, DSG3 Ab inh, PABP polyA inh, PABP1 MLLE inh)
N=C1/C(=C/c2ccco2)C(=O)N=C2SC(CC(=O)N3CCCC3)=NN12	eIF4H FP inh 79, PABP polyA inh active
CC(C)CS(=O)(=O)C1=NN2C(=N)/C(=C\c3ccc(OC(=O)c4ccco4)cc3)C(=O)N=C2S1	eIF4H FP inh 66, PABP polyA inh active
O=C(CN1C(=O)/C(=C2/SC(=S)N(CCS(=O)(=O)O)C2=O)c2ccccc21)Nc1cccc(C(F)(F)F)c1	DSG3 Ab inh 82 (no result: eIF4H FP inh, PABP polyA inh)
O=C(CN1C(=O)/C(=C2\SC(=S)N(CCS(=O)(=O)O)C2=O)c2ccccc21)Nc1cccc(Br)c1	eIF4H FP inh 93, DSG3 Ab inh 45, PABP polyA inh active
C[C@H](O)C#Cc1ccc2c(c1)O[C@@H](CN(C)C(=O)CN(C)C)[C@@H](C)CN([C@@H](C)CO)S2(=O)=O	none (no result: eIF4H FP inh, DSG3 Ab inh, PABP polyA inh, PABP1 MLLE inh)
Cc1noc(C)c1S(=O)(=O)Nc1ccc2c(c1)C(=O)N([C@@H](C)CO)C[C@@H](C)[C@H](CN(C)C(=O)Cc1ccccc1)OCCCC[C@@H](C)O2	none (no result: eIF4H FP inh, DSG3 Ab inh, PABP polyA inh, PABP1 MLLE inh)
CNC[C@H]1Oc2ccc(NC(=O)NC(C)C)cc2CC(=O)N([C@@H](C)CO)C[C@H]1C	none (no result: eIF4H FP inh, DSG3 Ab inh, PABP polyA inh, PABP1 MLLE inh)
COCc1ccc(C(=O)Nc2cccc(S(=O)(=O)N(C)c3ccccc3)c2)cc1	DSG3 Ab inh 28 (no result: Yeast UUG start, eIF4H FP inh, PABP polyA inh)
Cc1ccc(S(=O)(=O)N2CCC(C(=O)NNC(=O)c3ccccc3)CC2)cc1	eIF4H FP inh 56, PABP polyA inh active (no result: Yeast UUG start)
Cc1cc(=O)oc2cc(OCC(=O)Nc3ccc4[nH]c(=O)[nH]c4c3)ccc12	none (no result: eIF4H FP inh, PABP polyA inh)
Cc1cc(=O)oc2cc(OCC(=O)Nc3ccc(S(=O)(=O)N(C)C)cc3)ccc12	DSG3 Ab inh 71
Cc1cc(=O)oc2cc(OCC(=O)OCC(=O)Nc3ccccc3Br)ccc12	DSG3 Ab inh 71 (no result: Yeast UUG start)
N#CC1=C(N)NC(=S)C(C(N)=O)C1c1ccccc1F (configuration not stated)	PABP1 MLLE inh 46
CCCC#Cc1cnc2c(c1)C(=O)N([C@@H](C)CO)C[C@@H](C)[C@H](CN(C)C(=O)c1cnccn1)O2	none (no result: eIF4H FP inh, DSG3 Ab inh, PABP polyA inh, PABP1 MLLE inh)
C[C@@H]1CN([C@H](C)CO)C(=O)c2cccc(NS(=O)(=O)c3ccc(F)cc3)c2O[C@@H]1CN(C)Cc1ccc(C(F)(F)F)cc1	none (no result: eIF4H FP inh, DSG3 Ab inh, PABP polyA inh, PABP1 MLLE inh)
O=C1c2ccccc2C(=O)N1CCCn1ccnc1	DSG3 Ab inh 91
O=C1NC(=O)N2CCSC2(Cc2ccccc2)N1 (configuration not stated)	PABP1 MLLE inh 41 (no result: Yeast UUG start, eIF4H FP inh, DSG3 Ab inh, PABP polyA inh)
O=C1CCN(Cc2ccccc2)C(=O)N1	none (no result: eIF4H FP inh, PABP polyA inh)
CN(C)CCNc1nc2c(c(=O)[nH]c(=O)n2C)n1CCOc1ccccc1	DSG3 Ab inh 81 (no result: Yeast UUG start)
COC(=O)c1cc(-c2ccccc2)sc1NC(=O)CN1C(=O)c2ccccc2C1=O	PABP1 MLLE inh 36
COC(=O)c1cc(OC)c(OC)cc1NC(=O)CN1C(=O)c2ccccc2C1=O	none (no result: DSG3 Ab inh)
C/C(=N\NC(=S)NC1CCCCC1)c1ccccc1	DSG3 Ab inh 83
COc1ccc(-c2cc(-c3ccco3)[nH]c(=O)c2C#N)cc1	eIF4H FP inh 74, PABP polyA inh active
C[C@@H]1CCCCO[C@H](CN(C)Cc2ccc3c(c2)OCO3)[C@H](C)CN([C@H](C)CO)C(=O)c2cc(NC(=O)Nc3ccc(C(F)(F)F)cc3)ccc2O1	none (no result: eIF4H FP inh, DSG3 Ab inh, PABP polyA inh, PABP1 MLLE inh)
COc1ccc(-c2ccc(-c3nc4c(c(=O)[nH]c(=O)n4Cc4ccccc4)n3C)o2)c([N+](=O)[O-])c1	DSG3 Ab inh 76
